Measured values reported in patent US4225529A, “Compositions containing platinum” (Johnson, Matthey & Co., Limited, priority 1977, dated 1980).

Assay: solubility
Type: physicochemical
Source text: The complex was insoluble in hot water, ethanol, aqueous sodium sulphate solution, methanol and acetone. However, the complex was soluble in concentrated sulphuric acid and was recrystallised as follows.

For “Aquobis(n-butylamine)sulphatoplatinum(II) [Example 7]”, the solubility (concentrated sulphuric acid) was “soluble” and the solubility (hot water, ethanol, aqueous sodium sulphate solution, methanol and acetone) was “insoluble”.
